Target: EGFR (human (endogenous on human cancer cell …, UniProt P00533 25-1210))
Experiment: cell-based or functional assay

Binder | IC50 of in vitro proliferation inhibition, EGFR-positive MDA-MB-468 cells (CCK8, 6 days) [nM]
ADC-125 (antibody, human IgG1, V domains shown, linker-drug LD-104 (maleimide) coupled to cysteine sulfhydryls after TCEP reduction; average drug loading y=5.66 per antibody; positions not given) VH: QVQLQQSGAEVKKPGSSVKVSCKASGYTFTNYYIYWVRQAPGQGLEWIGGINPTSGGSNFNEKFKTRVTITVDESTNTAYMELSSLRSEDTAFYFCARQGLWFDSDGRGFDFWGQGSTVTVSS VL: DIQMTQSPSSLSASVGDRVTITCRSSQNIVHSNGNTYLDWYQQTPGKAPKLLIYKVSNRFSGVPSRFSGSGSGTDFTFTISSLQPEDIATYYCFQYSHVPWTFGQGTKLQITR | 0.19
ADC-127 (antibody, human IgG1, V domains shown, linker-drug LD-98 coupled to cysteine sulfhydryls after TCEP reduction; average drug loading y=6.31 per antibody; positions not given) VH: QVQLQQSGAEVKKPGSSVKVSCKASGYTFTNYYIYWVRQAPGQGLEWIGGINPTSGGSNFNEKFKTRVTITVDESTNTAYMELSSLRSEDTAFYFCARQGLWFDSDGRGFDFWGQGSTVTVSS VL: DIQMTQSPSSLSASVGDRVTITCRSSQNIVHSNGNTYLDWYQQTPGKAPKLLIYKVSNRFSGVPSRFSGSGSGTDFTFTISSLQPEDIATYYCFQYSHVPWTFGQGTKLQITR | 0.14
ADC-130 (antibody, human IgG1, V domains shown, linker-drug LD-113 coupled to cysteine sulfhydryls after TCEP reduction; average drug loading y=7.18 per antibody; positions not given) VH: QVQLQQSGAEVKKPGSSVKVSCKASGYTFTNYYIYWVRQAPGQGLEWIGGINPTSGGSNFNEKFKTRVTITVDESTNTAYMELSSLRSEDTAFYFCARQGLWFDSDGRGFDFWGQGSTVTVSS VL: DIQMTQSPSSLSASVGDRVTITCRSSQNIVHSNGNTYLDWYQQTPGKAPKLLIYKVSNRFSGVPSRFSGSGSGTDFTFTISSLQPEDIATYYCFQYSHVPWTFGQGTKLQITR | 0.19
ADC-131 (antibody, human IgG1, V domains shown, linker-drug LD-114 coupled to cysteine sulfhydryls after TCEP reduction; average drug loading y=7.30 per antibody; positions not given) VH: QVQLQQSGAEVKKPGSSVKVSCKASGYTFTNYYIYWVRQAPGQGLEWIGGINPTSGGSNFNEKFKTRVTITVDESTNTAYMELSSLRSEDTAFYFCARQGLWFDSDGRGFDFWGQGSTVTVSS VL: DIQMTQSPSSLSASVGDRVTITCRSSQNIVHSNGNTYLDWYQQTPGKAPKLLIYKVSNRFSGVPSRFSGSGSGTDFTFTISSLQPEDIATYYCFQYSHVPWTFGQGTKLQITR | 0.23

Reference: patent US20260001891A1 (KEYMED BIOSCIENCES CHENGDU, published 2026)
